In ChEMBL document CHEMBL1130381, “Synthesis and evaluation of trimetoquinol derivatives: novel thromboxane A2/prostaglandin H2 antagonists with diminished beta-adrenergic agonist activity” (J Med Chem, 1997):

Tested on: Adrenergic receptor beta-1/beta-2 (Cavia porcellus)
Experiment: Selectivity ratio of compound measured as Potency ratio of beta-2 receptor to that of potency ratio of beta-1
Assay type: protein assay

Selectivity ratio: 5.5
SMILES: O=[N+]([O-])c1cc(CC2NCCc3cc(O)c(O)cc32)ccc1O (stereo unspecified)
